Conditions: aqueous solution

In the case of D-mannose/mannitol, the saturated solution is reported as 59 grams per 100 millilitres of s.

Source: US20190038644A1, “PREPARATION FOR NASAL-NASOPHARYNGEAL TREATMENT” (priority 2017, published 2019)
